Data taken from patent US9340579B2, “DPP-4 inhibitor” (NIPPI, INCORPORATED, priority 2011, dated 2016).
Read-outs that look alike come from different tables or passages of the source.

By UniProt entry, the sequences of proteins in these tests, tags left out. Where a name states a change or a piece, a line headed by the entry shows the natural chain unless it says otherwise.
UniProt P22411: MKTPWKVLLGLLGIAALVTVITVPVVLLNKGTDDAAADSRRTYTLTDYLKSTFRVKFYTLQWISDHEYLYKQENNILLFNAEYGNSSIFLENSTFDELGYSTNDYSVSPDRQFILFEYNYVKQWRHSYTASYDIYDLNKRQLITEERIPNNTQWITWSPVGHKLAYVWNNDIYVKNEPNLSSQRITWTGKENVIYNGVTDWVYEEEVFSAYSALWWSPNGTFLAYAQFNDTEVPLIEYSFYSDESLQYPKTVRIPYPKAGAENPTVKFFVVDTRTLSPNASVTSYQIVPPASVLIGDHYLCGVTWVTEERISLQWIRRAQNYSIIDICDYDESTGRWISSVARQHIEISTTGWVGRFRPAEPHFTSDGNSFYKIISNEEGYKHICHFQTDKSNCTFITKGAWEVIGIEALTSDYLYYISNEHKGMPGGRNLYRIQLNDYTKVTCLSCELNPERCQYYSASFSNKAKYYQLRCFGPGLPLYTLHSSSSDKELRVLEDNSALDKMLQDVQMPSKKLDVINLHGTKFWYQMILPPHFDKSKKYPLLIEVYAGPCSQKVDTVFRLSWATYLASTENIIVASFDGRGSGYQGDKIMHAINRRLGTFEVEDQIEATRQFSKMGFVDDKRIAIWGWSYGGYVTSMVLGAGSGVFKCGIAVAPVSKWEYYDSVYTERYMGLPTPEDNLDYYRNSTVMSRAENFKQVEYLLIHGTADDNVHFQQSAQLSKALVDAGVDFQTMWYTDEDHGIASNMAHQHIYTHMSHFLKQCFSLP

Molecular target: T1, DPP-4 (manufactured by Sigma, derived from porcine kidney) (Sus scrofa, UniProt P22411)
T1 construct: derived from porcine kidney; purchased Sigma; host or cells: porcine kidney (tissue-derived)
Assay: DPP-4 inhibition rate and IC50 measurement, fluorescence of AMC freed from Gly-Pro-MCA
Assay type: biochemical
Settings: for inhibition at 350 µg/mL: sample 0.35 mg/ml, substrate Gly-Pro-MCA, pH 7.5, 37° C., read-out: Inhibition rate (%) at 0.35 mg/ml time; for IC50: sample concentration changed between 0.001 and 7.2 μmol/ml
Experimental: A sample liquid 35 μl obtained by dissolving a sample 1 mg in 50 mM tris-hydrochloric acid buffer (pH 7.5) 1 ml and DPP-4 (manufactured by Sigma, derived from porcine kidney; 8.6 mU/ml) 15 μl that had been dissolved in 50 mM tris-hydrochloric acid buffer (pH 7.5) were mixed in a microtiter plate well (manufactured by NUNC, trade name “237015”) and incubated at 37° C. for 10 minutes.
Thereto, 50 μl of a substrate solution (one obtained by dissolving glycyl-Pro-4-methylcoumarin-7-amide (Gly-Pro-MCA) in 50 mM tris-hydrochloric acid buffer (pH 7.5) so as to be 10 μM) that had in advance heated to and kept at 37° C. was added, mixed, and allowed to react at 37° C. for 20 minutes.
The fluorescence intensity of 7-amino-4-methylcoumarin (AMC) that was freed by DPP-4 was measured with time by a microplate reader type fluorescence detector (manufactured by Corona Electric Co., Ltd., trade name “SH-9000”). Note that the measurement wavelength was an excitation wavelength of 380 nm and a measurement wavelength of 460 nm. Note that one obtained by using the same amount of 50 mM tris-hydrochloric acid buffer (pH 7.5) in replace of the sample was used as a control; and the fluorescence intensity thereof was measured.
The activity of DPP-4 was expressed by an average gradient of change in the amount of the fluorescence intensity during the reaction time; and, as for DPP-4 inhibition rate, difference obtained by, with the control as 100%, subtracting the activity of the sample from the above-mentioned control was calculated as an inhibition rate (%).
In accordance with the above method of measuring a DPP-4 inhibition rate, sample concentration was changed between 0.001 and 7.2 μmol/ml to obtain the inhibition rate, thereby calculating the 50% inhibitory concentration (IC50 value) of the activity of DPP-4.

| Compound | inhibition at 350 µg/mL (Table 1) [%] | IC50 (Table 1) [µM] | IC50 (Table 2) [µM] | inhibition at 350 µg/mL (Table 2) [%] |
| --- | --- | --- | --- | --- |
| NCC(=O)N1CCC[C@H]1C(=O)N1CCC[C@H]1C(=O)O [Comparative Example 3, Gly-Pro-Pro, reference compound] | 10.2 | 78200 |  |  |
| CC(C)[C@H](NC(=O)[C@@H]1CCCN1C(=O)CN)C(=O)O [Example 7, Gly-Pro-Val] | 76.5 | 370 |  |  |
| NCC(=O)N1CCC[C@H]1C(=O)N[C@@H](CCC(N)=O)C(=O)O [Example 8, Gly-Pro-Gln] | 80.2 | 310 |  |  |
| CC(C)C[C@H](N)C(=O)N1CCC[C@H]1C(=O)NCC(=O)O [Example 17, Leu-Pro-Gly] |  |  | 50 |  |
| C[C@H](N)C(=O)N1CCC[C@H]1C(=O)NCC(=O)O [Example 19, Ala-Pro-Gly] |  |  | 30 | 98.7 |
